Structures can show the parent of a compound that is named as a salt.
Target: T1, human α3β4 receptors (Homo sapiens, UniProt P30926+P32297)
T1 construct: expressed in transfected cells; host or cells: Xenopus laevis oocytes, cRNA injection
Assay: Two-electrode voltage clamp, Xenopus oocytes expressing α3β4 receptors (Example 4)
Format: cell-based
Conditions: control ACh 100 μM, -50 mV

By UniProt entry, the sequences of proteins in these tests, tags left out. Residues count along the entry.
UniProt P30926, 22-498: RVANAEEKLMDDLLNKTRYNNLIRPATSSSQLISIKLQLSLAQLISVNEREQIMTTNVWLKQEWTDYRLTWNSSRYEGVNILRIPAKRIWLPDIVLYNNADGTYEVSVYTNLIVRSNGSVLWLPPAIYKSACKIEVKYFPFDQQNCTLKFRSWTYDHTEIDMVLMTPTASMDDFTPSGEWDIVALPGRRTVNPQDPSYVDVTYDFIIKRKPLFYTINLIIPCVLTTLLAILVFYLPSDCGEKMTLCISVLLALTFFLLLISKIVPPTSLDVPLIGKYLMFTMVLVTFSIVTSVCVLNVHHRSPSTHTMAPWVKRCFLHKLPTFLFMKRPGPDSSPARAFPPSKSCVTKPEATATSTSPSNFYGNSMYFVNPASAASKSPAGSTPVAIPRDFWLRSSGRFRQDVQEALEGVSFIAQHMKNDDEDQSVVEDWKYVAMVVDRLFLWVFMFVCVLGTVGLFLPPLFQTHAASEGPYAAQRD
UniProt P32297, 32-505: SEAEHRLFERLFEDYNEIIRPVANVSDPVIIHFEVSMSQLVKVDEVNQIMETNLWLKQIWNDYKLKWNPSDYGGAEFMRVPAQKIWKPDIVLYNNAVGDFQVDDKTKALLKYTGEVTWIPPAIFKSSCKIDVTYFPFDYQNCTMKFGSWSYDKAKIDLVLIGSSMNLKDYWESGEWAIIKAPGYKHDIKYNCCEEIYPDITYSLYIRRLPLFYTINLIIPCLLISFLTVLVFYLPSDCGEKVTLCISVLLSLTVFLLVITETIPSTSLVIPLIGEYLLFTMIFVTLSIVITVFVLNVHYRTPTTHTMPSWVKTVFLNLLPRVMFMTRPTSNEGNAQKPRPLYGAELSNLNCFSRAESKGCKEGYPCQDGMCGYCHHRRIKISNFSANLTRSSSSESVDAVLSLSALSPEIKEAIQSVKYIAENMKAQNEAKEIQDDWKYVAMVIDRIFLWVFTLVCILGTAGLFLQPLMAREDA

CN[C@@]1(C)[C@@H]2CC[C@@H](C2)C1(C)C [exo-S-mecamylamine, exo-S-N,2,3,3-tetramethyl-bicycl-o-[2.1.1]heptan-2-amine hydrochloride]
IC50 rank among receptor subtypes: most potent at inhibiting α3β4 receptors

From patent US10188613B2, “Exo-S-mecamylamine formulation and use in treatment” (UNIVERSITY OF SOUTH FLORIDA, priority 1998, dated 2019)
